Measured values from patent US6936585B2, “Corticotropin releasing factor 2 receptor agonists” (priority 2002, dated 2005).

How the values were obtained:
[1] = molecular target: T1, CRF1R (Homo sapiens, UniProt P34998); assay: CRF1R agonist activation (EC50 / Emax), called comparative CRF binding; assay type: cell-based
T1 sequence (P34998 24-415): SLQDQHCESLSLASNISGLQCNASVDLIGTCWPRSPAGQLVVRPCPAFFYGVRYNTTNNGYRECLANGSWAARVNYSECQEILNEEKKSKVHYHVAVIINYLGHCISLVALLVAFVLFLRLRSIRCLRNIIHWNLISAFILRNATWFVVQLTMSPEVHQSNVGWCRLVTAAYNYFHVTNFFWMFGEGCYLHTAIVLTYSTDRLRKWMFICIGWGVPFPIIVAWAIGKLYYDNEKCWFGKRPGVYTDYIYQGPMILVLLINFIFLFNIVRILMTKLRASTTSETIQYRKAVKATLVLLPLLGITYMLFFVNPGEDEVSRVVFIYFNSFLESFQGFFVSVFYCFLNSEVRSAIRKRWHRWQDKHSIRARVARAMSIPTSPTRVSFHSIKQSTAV
Outline: (§1)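 Receptor-expressing cells are contacted with test peptide or the vehicle it is dissolved in. Lysates are then assayed for cAMP, or expression of a CRE-coupled reporter is quantitated. Engineered cells carrying receptor-G-protein fusions may replace full-length receptors.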

[2] = molecular target: T2, CRF2R (Homo sapiens, UniProt Q13324); assay: CRF2R agonist activation (EC50 / Emax), called comparative CRF binding; assay type: cell-based
T2 sequence (Q13324 1-411): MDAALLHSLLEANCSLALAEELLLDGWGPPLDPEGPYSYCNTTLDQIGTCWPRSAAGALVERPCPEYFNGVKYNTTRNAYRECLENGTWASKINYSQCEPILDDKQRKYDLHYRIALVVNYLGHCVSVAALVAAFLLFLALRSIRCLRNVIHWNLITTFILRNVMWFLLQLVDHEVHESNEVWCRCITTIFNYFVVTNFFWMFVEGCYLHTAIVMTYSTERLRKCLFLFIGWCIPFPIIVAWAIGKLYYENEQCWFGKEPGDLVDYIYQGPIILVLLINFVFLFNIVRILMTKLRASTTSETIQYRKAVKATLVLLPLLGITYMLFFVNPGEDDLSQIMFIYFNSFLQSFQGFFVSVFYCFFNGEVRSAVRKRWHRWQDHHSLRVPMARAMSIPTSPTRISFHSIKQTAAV
Outline: as §1

Compound | Emax ([1]; read-out: CRF1R Emax) | Emax ([2]; read-out: CRF2R Emax) | EC50 ([1]; CRF1R EC50) | EC50 [2] | Emax ([1]; Emax, read-out: CRF1R (Emax %)) | Emax ([2]; Emax, read-out: CRF2R (Emax %))
CC[C@H](C)[C@H](NC(=O)[C@H](CCCNC(=N)N)NC(=O)[C@H](C)NC(=O)[C@H](CC(C)C)NC(=O)[C@H](CC(C)C)NC(=O)[C@H](CCCNC(=N)N)NC(=O)[C@H](C)NC(=O)[C@H](CC(N)=O)NC(=O)[C@H](CC(N)=O)NC(=O)[C@H](C)NC(=O)[C@H](C)NC(=O)[C@H](CCC(N)=O)NC(=O)[C@H](CCC(N)=O)NC(=O)[C@H](CCCCN)NC(=O)[C@H](CCC(=O)O)NC(=O)[C@H](CCCCN)NC(=O)[C@H](CCC(=O)O)NC(=O)[C@H](CCC(N)=O)NC(=O)[C@H](CCCCN)NC(=O)[C@H](CCC(=O)O)NC(=O)[C@@H](NC(=O)[C@H](CCC(=O)O)NC(=O)[C@@H](NC(=O)[C@H](CCSC)NC(=O)[C@H](CCCCN)NC(=O)[C@H](CCCNC(=N)N)NC(=O)[C@H](CC(C)C)NC(=O)[C@H](CC(C)C)NC(=O)[C@H](Cc1c[nH]c2ccccc12)NC(=O)[C@@H](NC(=O)[C@@H]1CCCN1C(=O)[C@H](CC(C)C)NC(=O)[C@H](CC(=O)O)NC(=O)[C@@H](NC(=O)[C@H](CO)NC(=O)[C@@H](NC(=O)[C@@H]1CCCN1C(=O)[C@@H]1CCCN1C(=O)CNC(=O)[C@@H]1CCC(=O)N1)[C@@H](C)CC)[C@@H](C)CC)[C@@H](C)O)[C@@H](C)CC)[C@@H](C)CC)C(N)=O [compound 292] | 7% | 86.1% | – | – | – | –
CC[C@H](C)[C@H](NC(=O)[C@@H](NC(=O)[C@H](CC(=O)O)NC(=O)[C@H](CC(C)C)NC(=O)[C@H](CC(C)C)NC(=O)[C@H](CC(C)C)NC(=O)[C@H](CCCNC(=N)N)NC(=O)[C@H](CC(N)=O)NC(=O)[C@H](CC(N)=O)NC(=O)[C@H](C)NC(=O)[C@H](C)NC(=O)[C@H](CCC(N)=O)NC(=O)[C@H](CCC(N)=O)NC(=O)[C@H](CCCCN)NC(=O)[C@H](CCC(=O)O)NC(=O)[C@H](CCCCN)NC(=O)[C@H](CCC(=O)O)NC(=O)[C@H](CCC(N)=O)NC(=O)[C@H](CCCCN)NC(=O)[C@H](CCC(=O)O)NC(=O)[C@@H](NC(=O)[C@H](CCC(=O)O)NC(=O)[C@@H](NC(=O)[C@H](CCSC)NC(=O)[C@H](CCCCN)NC(=O)[C@H](CCCNC(=N)N)NC(=O)[C@H](CC(C)C)NC(=O)[C@H](CC(C)C)NC(=O)[C@H](CCC(N)=O)NC(=O)[C@H](Cc1c[nH]c2ccccc12)NC(=O)[C@@H]1CCCN1C(=O)[C@H](CC(C)C)NC(=O)[C@H](CC(=O)O)NC(=O)[C@@H](NC(=O)[C@H](CO)NC(=O)[C@@H](NC(=O)[C@@H]1CCCN1C(=O)[C@@H]1CCCN1C(=O)CNC(=O)[C@@H]1CCC(=O)N1)[C@@H](C)CC)[C@@H](C)CC)[C@@H](C)CC)[C@@H](C)CC)[C@@H](C)O)C(N)=O [compound 210] | 90% | 97% | 43.5 nM | 10.2 nM | – | –
CC[C@H](C)[C@H](NC(=O)[C@@H](NC(=O)[C@H](CC(=O)O)NC(=O)[C@H](CC(C)C)NC(=O)[C@H](CC(C)C)NC(=O)[C@H](CC(C)C)NC(=O)[C@H](CCCNC(=N)N)NC(=O)[C@H](CC(N)=O)NC(=O)[C@@H](NC(=O)[C@@H](NC(=O)[C@H](C)NC(=O)[C@H](CCC(N)=O)NC(=O)[C@H](CCC(N)=O)NC(=O)[C@H](CCCCN)NC(=O)[C@H](CCC(=O)O)NC(=O)[C@H](CCCCN)NC(=O)[C@H](CCC(=O)O)NC(=O)[C@H](CCC(N)=O)NC(=O)[C@H](CCCCN)NC(=O)[C@H](CCC(=O)O)NC(=O)[C@@H](NC(=O)[C@H](CCC(=O)O)NC(=O)[C@@H](NC(=O)[C@H](CCSC)NC(=O)[C@H](CCCCN)NC(=O)[C@H](CCCNC(=N)N)NC(=O)[C@H](CC(C)C)NC(=O)[C@H](CC(C)C)NC(=O)[C@H](CCC(N)=O)NC(=O)[C@H](Cc1ccccc1)NC(=O)[C@@H]1CCCN1C(=O)[C@H](CC(C)C)NC(=O)[C@H](CC(=O)O)NC(=O)[C@@H](NC(=O)[C@H](CO)NC(=O)[C@@H](NC(=O)[C@@H]1CCCN1C(=O)[C@@H]1CCCN1C(=O)CNC(=O)[C@@H]1CCC(=O)N1)[C@@H](C)CC)[C@@H](C)CC)[C@@H](C)CC)[C@@H](C)CC)[C@@H](C)O)[C@@H](C)O)[C@@H](C)O)C(N)=O [compound 13] | 69% | 79% | – | – | – | –
CC[C@H](C)[C@H](NC(=O)[C@@H](NC(=O)[C@H](CC(=O)O)NC(=O)[C@H](CC(C)C)NC(=O)[C@H](CC(C)C)NC(=O)[C@H](CC(C)C)NC(=O)[C@H](CCCNC(=N)N)NC(=O)[C@H](CC(N)=O)NC(=O)[C@H](CC(N)=O)NC(=O)[C@H](C)NC(=O)[C@H](C)NC(=O)[C@H](CCC(N)=O)NC(=O)[C@H](CCC(N)=O)NC(=O)[C@H](CCCCN)NC(=O)[C@H](CCC(=O)O)NC(=O)[C@H](CCCCN)NC(=O)[C@H](CCC(=O)O)NC(=O)[C@H](CCC(N)=O)NC(=O)[C@H](CCCCN)NC(=O)[C@H](CCC(=O)O)NC(=O)[C@@H](NC(=O)[C@H](CCC(=O)O)NC(=O)[C@@H](NC(=O)[C@H](CCSC)NC(=O)[C@H](CCCCN)NC(=O)[C@H](CCCNC(=N)N)NC(=O)[C@H](CC(C)C)NC(=O)[C@H](CC(C)C)NC(=O)[C@H](CCC(N)=O)NC(=O)[C@@H](NC(=O)[C@@H]1CCCN1C(=O)[C@H](CC(C)C)NC(=O)[C@H](CC(=O)O)NC(=O)[C@@H](NC(=O)[C@H](CO)NC(=O)[C@@H](NC(=O)[C@@H]1CCCN1C(=O)[C@@H]1CCCN1C(=O)CNC(=O)[C@@H]1CCC(=O)N1)[C@@H](C)CC)[C@@H](C)CC)[C@@H](C)O)[C@@H](C)CC)[C@@H](C)CC)[C@@H](C)O)C(N)=O [compound 72] | 4% | 55% | – | – | – | –
CC[C@H](C)[C@H](N)C(=O)N[C@H](C(=O)N[C@@H](CC(C)C)C(=O)N[C@@H](CO)C(=O)N[C@@H](CC(C)C)C(=O)N[C@@H](CC(=O)O)C(=O)N[C@H](C(=O)N1CCC[C@H]1C(=O)N[C@H](C(=O)NCC(=O)N[C@@H](CC(C)C)C(=O)N[C@@H](CC(C)C)C(=O)N[C@@H](CCC(N)=O)C(=O)N[C@H](C(=O)N[C@@H](CC(C)C)C(=O)N[C@@H](CC(C)C)C(=O)N[C@@H](CCC(=O)O)C(=O)N[C@@H](CCC(N)=O)C(=O)N[C@@H](C)C(=O)N[C@@H](CCCNC(=N)N)C(=O)N[C@@H](C)C(=O)N[C@@H](CCCNC(=N)N)C(=O)N[C@@H](C)C(=O)N[C@@H](C)C(=O)N[C@@H](CCCNC(=N)N)C(=O)N[C@@H](CCC(=O)O)C(=O)N[C@@H](CCC(N)=O)C(=O)N[C@@H](C)C(=O)N[C@H](C(=O)N[C@H](C(=O)N[C@@H](CC(N)=O)C(=O)N[C@@H](C)C(=O)N[C@@H](CCCNC(=N)N)C(=O)N[C@H](C(=O)N[C@@H](CC(C)C)C(=O)N[C@@H](C)C(=O)N[C@@H](CCCNC(=N)N)C(=O)N[C@H](C(N)=O)C(C)C)[C@@H](C)CC)[C@@H](C)O)[C@@H](C)O)[C@@H](C)CC)[C@@H](C)CC)C(C)C)C(C)C [hUroII, human urocortin II, reference compound] | – | – | – | – | 9% | 98%

Where two headings read alike, the source gives them in different places.
